From patent US20090099157A1, “TETRAHYDRO-PYRAZOLO-PYRIDINE THIOETHER MODULATORS OF CATHEPSIN S” (priority 2007, published 2009)

Chains of the proteins cited; added tags and fusions are not shown. Residues count along the entry.
UniProt P25774, 115-331: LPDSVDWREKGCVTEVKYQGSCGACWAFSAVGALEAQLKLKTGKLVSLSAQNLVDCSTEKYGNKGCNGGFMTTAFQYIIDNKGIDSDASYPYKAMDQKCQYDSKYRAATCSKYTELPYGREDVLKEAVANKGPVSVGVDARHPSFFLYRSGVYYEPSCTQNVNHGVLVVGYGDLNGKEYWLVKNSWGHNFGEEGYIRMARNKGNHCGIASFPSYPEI

Target: Recombinant human cathepsin S (CatS) (Homo sapiens, UniProt P25774)
Test: biochemical

| IC50 [µM] | SMILES |
| --- | --- |
| 0.23 | CS(=O)(=O)N1CCc2c(c(-c3ccc(C(F)(F)F)c(SCC(=O)N4CCC(c5ccccc5)CC4)c3)nn2CCCN2CCC(N3CCCC3=O)CC2)C1 [Example 100, 1-{1-[3-(5-Methanesulfonyl-3-{3-[2-oxo-2-(4-phenyl-piperidin-1-yl)-ethylsulfanyl]-4-trifluoromethyl-phenyl}-4,5,6,7-tetrahydro-pyrazolo[4,3-c]pyridin-1-yl)-propyl]-piperidin-4-yl}-pyrrolidin-2-one] |
| 0.095 | N#Cc1ccc(C2CCN(C[C@H](O)Cn3nc(-c4ccc(C(F)(F)F)c(SCCN5CCC(F)CC5)c4)c4c3CCNC4)CC2)cc1 [Example 533, 4-{1-[(2S)-3-{3-[3-{[2-(4-Fluoropiperidin-1-yl)ethyl]sulfanyl}-4-(trifluoromethyl)phenyl]-4,5,6,7-tetrahydro-1H-pyrazolo[4,3-c]pyridin-1-yl}-2-hydroxypropyl]piperidin-4-yl}benzonitrile] |
| 0.17 | CC(=O)N1CCc2c(c(-c3ccc(C(F)(F)F)c(SCC(=O)N4CCCC4)c3)nn2CC(O)CN2CC3CCCC3C2)C1 (stereo not shown) [Example 329, 1-(5-Acetyl-3-{3-[(2-oxo-2-pyrrolidin-1-ylethyl)sulfanyl]-4-(trifluoromethyl)phenyl}-4,5,6,7-tetrahydro-1H-pyrazolo[4,3-c]pyridin-1-yl)-3-(hexahydrocyclopenta[c]pyrrol-2(1H)-yl)propan-2-ol] |
| 0.15 | CS(=O)(=O)N1CCc2c(c(-c3ccc(C(F)(F)F)c(SCC(=O)N4CCCCC4)c3)nn2CC(O)CN2CCCCC2)C1 (stereo not shown) [Example 376, 1-[5-(Methylsulfonyl)-3-{3-[(2-oxo-2-piperidin-1-ylethyl)sulfanyl]-4-(trifluoromethyl)phenyl}-4,5,6,7-tetrahydro-1H-pyrazolo[4,3-c]pyridin-1-yl]-3-piperidin-1-ylpropan-2-ol] |
| 0.04 | COc1ccccc1N1CCN(CC(O)Cn2nc(-c3ccc(C(F)(F)F)c(SCCN4CCOCC4)c3)c3c2CCN(S(C)(=O)=O)C3)CC1 (stereo not shown) [Example 785, 1-{4-[2-(Methyloxy)phenyl]piperazin-1-yl}-3-[5-(methylsulfonyl)-3-{3-[(2-morpholin-4-ylethyl)sulfanyl]-4-(trifluoromethyl)phenyl}-4,5,6,7-tetrahydro-1H-pyrazolo[4,3-c]pyridin-1-yl]propan-2-ol] |
| 0.01 | CS(=O)(=O)N1CCc2c(c(-c3ccc(C(F)(F)F)c(SCC(=O)N4CCOCC4)c3)nn2CC(O)CN2CCN(c3ccccc3C#N)CC2)C1 (stereo not shown) [Example 824, 2-(4-{2-Hydroxy-3-[5-(methylsulfonyl)-3-{3-[(2-morpholin-4-yl-2-oxoethyl)sulfanyl]-4-(trifluoromethyl)phenyl}-4,5,6,7-tetrahydro-1H-pyrazolo[4,3-c]pyridin-1-yl]propyl}piperazin-1-yl)benzonitrile] |
| 0.28 | CCN(CC)C(=O)C1CCN(C(=O)CSc2cc(-c3nn(CCCN4CCC(N5CCCC5=O)CC4)c4c3CN(S(C)(=O)=O)CC4)ccc2C(F)(F)F)CC1 [Example 107, 1-{2-[5-(5-Methanesulfonyl-1-{3-[4-(2-oxo-pyrrolidin-1-yl)-piperidin-1-yl]-propyl}-4,5,6,7-tetrahydro-1H-pyrazolo[4,3-c]pyridin-3-yl)-2-trifluoromethylphenylsulfanyl]-acetyl}-piperidine-4-carboxylic acid diethylamide] |
| 0.15 | CS(=O)(=O)N1CCc2c(c(-c3ccc(C(F)(F)F)c(SCC(=O)N4CCC(C(N)=O)CC4)c3)nn2CCCN2CCC(N3CCCC3=O)CC2)C1 [Example 91, 1-{2-[5-(5-Methanesulfonyl-1-{3-[4-(2-oxo-pyrrolidin-1-yl)-piperidin-1-yl]-propyl}-4,5,6,7-tetrahydro-1H-pyrazolo[4,3-c]pyridin-3-yl)-2-trifluoromethyl-phenylsulfanyl]-acetyl}-piperidine-4-carboxylic acid amide] |
| 1.43 | CC(CCc1ccccc1)NCCSc1cc(-c2nn(CCCN3CCC(N4CCCC4=O)CC3)c3c2CN(S(C)(=O)=O)CC3)ccc1C(F)(F)F (stereo not shown) [Example 853, 1-[1-(3-{3-[3-({2-[(1-Methyl-3-phenylpropyl)amino]ethyl}sulfanyl)-4-(trifluoromethyl)phenyl]-5-(methylsulfonyl)-4,5,6,7-tetrahydro-1H-pyrazolo[4,3-c]pyridin-1-yl}propyl)piperidin-4-yl]pyrrolidin-2-one] |
| 0.28 | CC(=O)NC1CCN(CCCn2nc(-c3ccc(C(F)(F)F)c(SCCO)c3)c3c2CCN(S(C)(=O)=O)C3)CC1 [Example 2, N-[1-(3-{3-[3-(2-Hydroxy-ethylsulfanyl)-4-trifluoromethyl-phenyl]-5-methanesulfonyl-4,5,6,7-tetrahydro-pyrazolo[4,3-c]pyridin-1-yl}-propyl)-piperidin-4-yl]-acetamide] |
| 0.06 | CS(=O)(=O)N1CCc2c(c(-c3ccc(C(F)(F)F)c(SCCNC4CCCC4)c3)nn2CC(O)CN2CCC(O)(c3ccccn3)CC2)C1 (stereo not shown) [Example 716, 1-(3-{3-[3-{[2-(Cyclopentylamino)ethyl]sulfanyl}-4-(trifluoromethyl)phenyl]-5-(methylsulfonyl)-4,5,6,7-tetrahydro-1H-pyrazolo[4,3-c]pyridin-1-yl}-2-hydroxypropyl)-4-pyridin-2-ylpiperidin-4-ol] |
| 0.21 | CS(=O)(=O)N1CCc2c(c(-c3ccc(C(F)(F)F)c(SCCN4CCC[C@H]4C(F)(F)F)c3)nn2CCCN2CCC(N3CCCC3=O)CC2)C1 [Example 20, (S)-1-{1-[3-(5-Methanesulfonyl-3-{4-trifluoromethyl-3-[2-(2-trifluoromethyl-pyrrolidin-1-yl)-ethylsulfanyl]-phenyl}-4,5,6,7-tetrahydro-pyrazolo[4,3-c]pyridin-1-yl)-propyl]-piperidin-4-yl}-pyrrolidin-2-one] |
| 0.36 | CS(=O)(=O)N1CCc2c(c(-c3ccc(C(F)(F)F)c(SCCNC(=O)c4ccc(F)cc4)c3)nn2CC(O)CN2CCC(N3CCCC3=O)CC2)C1 (stereo not shown) [Example 118, 4-Fluoro-N-{2-[5-(1-{2-hydroxy-3-[4-(2-oxo-pyrrolidin-1-yl)-piperidin-1-yl]-propyl}-5-methanesulfonyl-4,5,6,7-tetrahydro-1H-pyrazolo[4,3-c]pyridin-3-yl)-2-trifluoromethyl-phenylsulfanyl]-ethyl}-benzamide] |
| 0.08 | CC(=O)N1CCc2c(c(-c3ccc(C(F)(F)F)c(SCCNC(=O)OCc4ccccc4)c3)nn2CC(O)CN2CCC(c3ccccn3)CC2)C1 (stereo not shown) [Example 774, Phenylmethyl (2-{[5-{5-acetyl-1-[2-hydroxy-3-(4-pyridin-2-ylpiperidin-1-yl)propyl]-4,5,6,7-tetrahydro-1H-pyrazolo[4,3-c]pyridin-3-yl}-2-(trifluoromethyl)phenyl]sulfanyl}ethyl)carbamate] |
| 0.37 | CC(=O)N1CCN(CCSc2cc(-c3nn(CC(O)CN4CCC(C(=O)N5CCCC5)CC4)c4c3CN(S(C)(=O)=O)CC4)ccc2C(F)(F)F)CC1 (stereo not shown) [Example 860, 1-{3-[3-{[2-(4-Acetylpiperazin-1-yl)ethyl]sulfanyl}-4-(trifluoromethyl)phenyl]-5-(methylsulfonyl)-4,5,6,7-tetrahydro-1H-pyrazolo[4,3-c]pyridin-1-yl}-3-[4-(pyrrolidin-1-ylcarbonyl)piperidin-1-yl]propan-2-ol] |
| 0.39 | CS(=O)(=O)N1CCc2c(c(-c3ccc(C(F)(F)F)c(SCCNC(=O)c4ccc(O)cc4)c3)nn2CC(O)CN2CCC(N3CCCC3=O)CC2)C1 (stereo not shown) [Example 119, 4-Hydroxy-N-{2-[5-(1-{2-hydroxy-3-[4-(2-oxo-pyrrolidin-1-yl)-piperidin-1-yl]-propyl}-5-methanesulfonyl-4,5,6,7-tetrahydro-1H-pyrazolo[4,3-c]pyridin-3-yl)-2-trifluoromethyl-phenylsulfanyl]-ethyl}-benzamide] |
| 0.81 | CS(=O)(=O)N1CCc2c(c(-c3ccc(C(F)(F)F)c(SCCN4CCOCC4)c3)nn2CC(O)CN2CCC(OCC(=O)N3CCCC3)CC2)C1 (stereo not shown) [Example 851, 1-[5-(Methylsulfonyl)-3-{3-[(2-morpholin-4-ylethyl)sulfanyl]-4-(trifluoromethyl)phenyl}-4,5,6,7-tetrahydro-1H-pyrazolo[4,3-c]pyridin-1-yl]-3-{4-[(2-oxo-2-pyrrolidin-1-ylethyl)oxy]piperidin-1-yl}propan-2-ol] |
| 0.2 | CS(=O)(=O)N1CCc2c(c(-c3ccc(C(F)(F)F)c(SCCN4CCC5CCCCC5C4)c3)nn2C[C@@H](O)CN2CCCCC2)C1 (stereo partly drawn) [Example 591, (2S)-1-{5-(Methylsulfonyl)-3-[3-{[2-(octahydroisoquinolin-2(1H)-yl)ethyl]sulfanyl}-4-(trifluoromethyl)phenyl]-4,5,6,7-tetrahydro-1H-pyrazolo[4,3-c]pyridin-1-yl}-3-piperidin-1-ylpropan-2-ol] |
| 0.78 | COc1ccc(N2CCN(CC(O)Cn3nc(-c4ccc(C(F)(F)F)c(SCCN5CCC(F)(F)C5)c4)c4c3CCNC4)CC2)cc1 (stereo not shown) [Example 583, 1-{3-[3-{[2-(3,3-Difluoropyrrolidin-1-yl)ethyl]sulfanyl}-4-(trifluoromethyl)phenyl]-4,5,6,7-tetrahydro-1H-pyrazolo[4,3-c]pyridin-1-yl}-3-{4-[4-(methyloxy)phenyl]piperazin-1-yl}propan-2-ol] |
| 1.58 | CC(=O)N1CCN(CC(O)Cn2nc(-c3ccc(C(F)(F)F)c(SCCN4CCOCC4)c3)c3c2CCN(S(C)(=O)=O)C3)CC1 (stereo not shown) [Example 552, 1-(4-Acetylpiperazin-1-yl)-3-[5-(methylsulfonyl)-3-{3-[(2-morpholin-4-ylethyl)sulfanyl]-4-(trifluoromethyl)phenyl}-4,5,6,7-tetrahydro-1H-pyrazolo[4,3-c]pyridin-1-yl]propan-2-ol] |
| 1.15 | CS(=O)(=O)N1CCc2c(c(-c3ccc(C(F)(F)F)c(SCCN4CCN(CCc5ccccc5)CC4)c3)nn2CCCN2CCC(N3CCCC3=O)CC2)C1 [Example 49] |
| 0.09 | CS(=O)(=O)N1CCc2c(c(-c3ccc(C(F)(F)F)c(SCCN4CCCC(CO)C4)c3)nn2CC(O)CN2CCC(O)(c3ccccn3)CC2)C1 (stereo not shown) [Example 839, 1-(2-Hydroxy-3-{3-[3-({2-[3-(hydroxymethyl)piperidin-1-yl]ethyl}sulfanyl)-4-(trifluoromethyl)phenyl]-5-(methylsulfonyl)-4,5,6,7-tetrahydro-1H-pyrazolo[4,3-c]pyridin-1-yl}propyl)-4-pyridin-2-ylpiperidin-4-ol] |
